Activity calls are given as the source filed them. The calls are words filed in the database; no cut-off is given here.
Assays:
[1] = target: Delta-type opioid receptor (Homo sapiens) (UniProt P41143); experiment: Agonist activity at recombinant human DOR expressed in HEK293T cells assessed as inhibition of forskolin-stimulated cAMP level at 10 uM preincubated for 15 to 20 mins followed by forskolin addition by GloSensor assay relative to control; type: functional, cell-based; conditions: HEK-293T
How it was run: (§1)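 HEK293T transiently co-transfected (calcium phosphate) with DOR or MOR plus pGloSensor-22F. Cells were loaded with luciferin in HBSS/20 mM HEPES pH 7.4 for 90 min, then given compound in triplicate for 15-20 min at 37°C. Forskolin added (final 10 µM); luminescence read. cAMP signal normalized to forskolin-alone control.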

Chains of the proteins cited; added tags and fusions are not shown. Lines headed by an entry give the natural chain unless they say otherwise; changes in a name come on top.
UniProt P41143, whole entry, looked up: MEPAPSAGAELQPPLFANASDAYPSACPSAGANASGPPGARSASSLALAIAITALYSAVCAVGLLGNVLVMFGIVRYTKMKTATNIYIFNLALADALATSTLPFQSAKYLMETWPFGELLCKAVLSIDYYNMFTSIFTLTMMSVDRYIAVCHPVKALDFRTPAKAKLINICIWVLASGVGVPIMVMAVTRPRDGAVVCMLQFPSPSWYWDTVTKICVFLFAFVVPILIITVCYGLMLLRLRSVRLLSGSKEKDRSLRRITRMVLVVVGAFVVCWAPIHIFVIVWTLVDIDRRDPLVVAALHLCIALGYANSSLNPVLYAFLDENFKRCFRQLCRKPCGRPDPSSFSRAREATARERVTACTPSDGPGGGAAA
UniProt P41145: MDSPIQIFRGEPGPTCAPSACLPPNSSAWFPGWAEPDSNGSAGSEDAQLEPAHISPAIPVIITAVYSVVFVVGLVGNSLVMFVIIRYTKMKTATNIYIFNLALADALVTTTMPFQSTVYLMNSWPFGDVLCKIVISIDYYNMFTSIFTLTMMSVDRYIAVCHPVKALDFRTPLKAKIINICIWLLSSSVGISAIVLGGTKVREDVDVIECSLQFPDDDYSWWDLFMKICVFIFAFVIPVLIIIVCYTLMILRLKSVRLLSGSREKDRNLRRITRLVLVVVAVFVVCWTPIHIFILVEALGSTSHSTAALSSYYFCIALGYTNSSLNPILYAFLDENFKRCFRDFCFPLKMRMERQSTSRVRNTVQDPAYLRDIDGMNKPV
UniProt P35372, whole entry, looked up: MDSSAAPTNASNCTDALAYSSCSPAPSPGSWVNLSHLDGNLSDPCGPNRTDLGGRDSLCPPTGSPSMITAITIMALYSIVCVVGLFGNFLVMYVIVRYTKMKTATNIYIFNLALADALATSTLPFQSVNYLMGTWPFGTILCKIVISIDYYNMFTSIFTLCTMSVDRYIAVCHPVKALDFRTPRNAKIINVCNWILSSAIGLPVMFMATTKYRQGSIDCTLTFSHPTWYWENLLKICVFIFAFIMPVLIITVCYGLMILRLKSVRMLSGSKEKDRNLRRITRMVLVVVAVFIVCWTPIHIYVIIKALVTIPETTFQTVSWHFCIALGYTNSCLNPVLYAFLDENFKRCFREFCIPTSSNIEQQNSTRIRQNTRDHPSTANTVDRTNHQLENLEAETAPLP
UniProt P35367, whole entry, looked up: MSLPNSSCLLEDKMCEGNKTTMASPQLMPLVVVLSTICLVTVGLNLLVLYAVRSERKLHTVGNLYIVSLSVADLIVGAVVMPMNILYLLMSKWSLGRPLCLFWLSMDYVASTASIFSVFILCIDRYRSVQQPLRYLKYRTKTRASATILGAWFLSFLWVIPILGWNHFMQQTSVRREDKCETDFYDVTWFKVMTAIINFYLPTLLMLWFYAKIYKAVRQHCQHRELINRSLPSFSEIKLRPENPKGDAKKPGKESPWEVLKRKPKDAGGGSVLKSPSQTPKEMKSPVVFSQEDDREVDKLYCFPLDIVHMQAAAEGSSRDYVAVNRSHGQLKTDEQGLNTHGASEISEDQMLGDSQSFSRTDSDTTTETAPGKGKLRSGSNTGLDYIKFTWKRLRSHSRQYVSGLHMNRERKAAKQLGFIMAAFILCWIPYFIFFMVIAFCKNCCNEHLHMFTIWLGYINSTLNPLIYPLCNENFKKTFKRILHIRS

[2] = target: T1, Kappa-type opioid receptor (Homo sapiens, UniProt P41145); conditions: HEK-293T, at 10 µM
[3] = target: T1, Kappa-type opioid receptor; conditions: HEK-293T, at 10 µM; remark: listed apart in the source
Mu-type opioid receptor [4] = target: T2, Mu-type opioid receptor (Homo sapiens, UniProt P35372); conditions: HEK-293T, at 10 µM
[5] = target: Delta-type opioid receptor (Homo sapiens) (UniProt P41143); experiment: Antagonist activity at recombinant human DOR expressed in HEK293T cells assessed as reduction in DADLE-induced inhibition of forskolin-stimulated cAMP level at 10 uM preincubated for 15 to 20 mins followed by DADLE and forskolin addition by GloSensor assay relative to control; type: functional, cell-based; conditions: HEK-293T
How it was run: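 HEK293T transiently expressing DOR plus GloSensor-22F were given compound in triplicate for 15-20 min at 37°C. DADLE (1 µM) was then added, followed by forskolin (10 µM); luminescence read. Signal normalized to % control (agonist + forskolin).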

Mus musculus [6] = experiment: Analgesic activity in C57BL/6J mouse assessed as tail withdrawal latency at 5 mg/kg by tail flick test
[7] = target: Histamine H1 receptor (Homo sapiens) (UniProt P35367); experiment: Antagonist activity at histamine H1 receptor (unknown origin) at 10 uM
How it was run: (§2)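 Primary screen, agonist and antagonist modes, each receptor tested separately. Compounds at 10 µM in triplicate; response taken as % inhibition or stimulation relative to control. Compounds giving at least 50% effect were then run over 10 µM to 10 pM to obtain EC50/IC50.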

[8] = target: Histamine H1 receptor (Homo sapiens) (UniProt P35367); experiment: Agonist activity at histamine H1 receptor (unknown origin) at 10 uM; how it was run: as §2
Mu-type opioid receptor [9] = target: T2, Mu-type opioid receptor; experiment: Agonist activity at recombinant human MOR expressed in HEK293T cells assessed as inhibition of forskolin-stimulated cAMP level at 10 uM preincubated for 15 to 20 mins followed by forskolin addition by GloSensor assay relative to control; type: functional, cell-based; conditions: HEK-293T; how it was run: as §1
Mus musculus [10] = experiment: Analgesic activity in C57BL/6J mouse assessed as tail withdrawal latency at 5 mg/kg measured after 30 mins in presence of KOR antagonist norBNI by tail flick test

Compound	inhibition [1]	inhibition [2]	inhibition [3]	inhibition (Mu-type opioid receptor [4])	inhibition [5]	Activity (Mus musculus [6])	inhibition [7]	Activity [8]	inhibition (Mu-type opioid receptor [9])	Activity (Mus musculus [10])
CC1CN(C/C(=C\c2ccccc2)C(=O)NCC(=O)O)CCC1(C)c1cccc(O)c1 (stereo not drawn)	inactive	inactive	inactive	50%	inactive	–	–	–	–	–
CN(C(=O)Cc1ccc(Cl)c(Cl)c1)C1CCCCC1N1CCCC1 (stereo not drawn)	inactive	–	–	inactive	inactive	Tde	inactive	inactive	inactive	inactive
